The assay addresses T1, Alpha-1A adrenergic receptor (Rattus norvegicus, UniProt P43140).
T1 sequence (P43140 whole entry): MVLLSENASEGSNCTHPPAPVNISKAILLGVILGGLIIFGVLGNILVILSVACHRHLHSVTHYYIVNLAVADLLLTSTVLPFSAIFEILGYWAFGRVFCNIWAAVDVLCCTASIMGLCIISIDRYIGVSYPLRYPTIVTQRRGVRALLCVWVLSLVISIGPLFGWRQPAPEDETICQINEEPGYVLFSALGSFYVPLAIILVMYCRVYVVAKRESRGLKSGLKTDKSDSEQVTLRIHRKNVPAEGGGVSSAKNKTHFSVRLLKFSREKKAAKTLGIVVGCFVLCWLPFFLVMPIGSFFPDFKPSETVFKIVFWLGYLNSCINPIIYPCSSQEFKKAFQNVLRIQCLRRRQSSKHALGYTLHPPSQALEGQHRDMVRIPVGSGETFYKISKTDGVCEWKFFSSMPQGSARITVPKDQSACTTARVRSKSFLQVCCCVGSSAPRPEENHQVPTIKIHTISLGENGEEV
Nature of the assay: Antagonist activity at Sprague-Dawley rat prostatic vas deferens adrenergic alpha-1A receptor after 20 mins. Particulars: read-out: pA2 (converted). The method, boiled down: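 Isolated rat tissues (prostatic vas deferens, spleen, thoracic aorta) contracted with cumulative norepinephrine; concentration-response curves recorded in presence of increasing antagonist concentrations, antagonism read as rightward curve shift. Mean ± SEM of five to eight separate experiments.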

Take `COc1cc2nc(N3CCN(C(=O)C4CCCO4)CC3)nc(N)c2cc1OC` (stereo unspecified) [TERAZOSIN]: the Kb was 12.6 nM.

These data come from ChEMBL document CHEMBL3414528, “Novel naftopidil-related derivatives and their biological effects as alpha1-adrenoceptors antagonists and antiproliferative agents” (Eur J Med Chem, 2015).
